# From patent US4559323A, “A41030 Antibiotics” (Eli Lilly and Company, priority 1984, dated 1985)
# System: Staphylococcus aureus
# Assay: Agar-dilution MIC
# Format: cell-based
# [1] = Table 17, 24 hours, Staphylococcus aureus S13E
Substance,MIC [µg/mL],MIC [1] [µg/mL],"MIC (Table 17, 24 hours, Staphylococcus aureus V41) [µg/mL]","MIC (Table 17, 24 hours, Staphylococcus aureus 3055) [µg/mL]"
A41030 factor C,0.5,0.5,0.5,
A41030 factor G,1,1,,0.5

# Like-named read-outs stand apart in the source and are kept apart here.
